Experimental data reported in publication PMC4507497 (Chemistry & biology, 2015).

Amino acid sequences for entries named in this document (tags omitted). A change or cut given only in a name is not applied to a line headed by its entry.
UniProt P35372, whole entry: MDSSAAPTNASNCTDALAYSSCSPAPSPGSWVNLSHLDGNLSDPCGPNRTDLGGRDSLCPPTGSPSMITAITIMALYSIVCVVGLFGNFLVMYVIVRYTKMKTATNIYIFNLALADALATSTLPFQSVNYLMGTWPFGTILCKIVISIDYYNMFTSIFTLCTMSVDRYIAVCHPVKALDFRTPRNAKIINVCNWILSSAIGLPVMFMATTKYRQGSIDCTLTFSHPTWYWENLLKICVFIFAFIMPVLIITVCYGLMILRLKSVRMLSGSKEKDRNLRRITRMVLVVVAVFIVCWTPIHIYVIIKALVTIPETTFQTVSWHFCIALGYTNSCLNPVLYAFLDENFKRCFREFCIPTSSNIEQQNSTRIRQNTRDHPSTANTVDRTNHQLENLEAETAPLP
UniProt P41145: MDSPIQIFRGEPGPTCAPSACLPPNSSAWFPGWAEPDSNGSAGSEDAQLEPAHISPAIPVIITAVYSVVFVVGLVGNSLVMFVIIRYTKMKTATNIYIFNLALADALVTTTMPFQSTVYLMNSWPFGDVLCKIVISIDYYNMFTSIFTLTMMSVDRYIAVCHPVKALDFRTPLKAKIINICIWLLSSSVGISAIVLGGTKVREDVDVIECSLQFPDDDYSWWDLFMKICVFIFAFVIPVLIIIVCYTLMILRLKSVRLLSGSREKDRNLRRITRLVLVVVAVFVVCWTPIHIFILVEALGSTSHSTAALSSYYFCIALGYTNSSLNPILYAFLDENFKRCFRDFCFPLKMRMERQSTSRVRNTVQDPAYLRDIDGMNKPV
UniProt P41143, whole entry: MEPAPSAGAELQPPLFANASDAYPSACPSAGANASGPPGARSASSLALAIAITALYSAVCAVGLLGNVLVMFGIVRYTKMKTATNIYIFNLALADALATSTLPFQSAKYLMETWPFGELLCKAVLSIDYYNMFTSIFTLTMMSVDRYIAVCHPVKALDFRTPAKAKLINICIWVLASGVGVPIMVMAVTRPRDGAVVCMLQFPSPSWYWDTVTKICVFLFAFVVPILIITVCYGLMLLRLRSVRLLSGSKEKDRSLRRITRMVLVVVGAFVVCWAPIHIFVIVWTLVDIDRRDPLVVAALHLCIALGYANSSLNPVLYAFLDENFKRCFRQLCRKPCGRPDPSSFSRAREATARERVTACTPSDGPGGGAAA

Tests used:
Human MOR (hMOR) = Human MOR (hMOR) (Homo sapiens, UniProt P35372); test: cell-based
Human KOR = Human KOR (Homo sapiens, UniProt P41145); test: cell-based
Human DOR = Human DOR (Homo sapiens, UniProt P41143); test: cell-based
h-rpMOR-E3h = test: Competition binding with radiolabeled diprenorphine, h-rpMOR-E3h; design: species or system human / Rana pipiens; conditions: Table 3, [3H]-diprenorphine competition
hMOR = hMOR (Homo sapiens, UniProt P35372); test: Competition binding with radiolabeled diprenorphine, hMOR
h-rpMOR-wt = test: Competition binding with radiolabeled diprenorphine, h-rpMOR-wt; design: species or system human / Rana pipiens; conditions: Table 3, [3H]-diprenorphine competition

Compound | EC50 (Human MOR (hMOR); EC50) | EC50 (Human MOR (hMOR); log EC50 ±SEM) [nM] | EC50 (Human KOR; EC50) [nM] | EC50 (Human KOR; log EC50 ±SEM) [nM] | EC50 (Human DOR; EC50) [nM] | EC50 (Human DOR; log EC50 ±SEM) [nM] | Ki (h-rpMOR-E3h) [nM] | Ki (hMOR) [nM] | Ki (h-rpMOR-wt) [nM]
CC(C)C[C@@H](NC(=O)[C@H](Cc1ccccc1)NC(=O)CNC(=O)[C@@H](C)NC(=O)[C@@H](N)Cc1ccc(O)cc1)C(=O)O [DADLE, [D-Ala^2,D-Leu^5]-enkephalin] | 14 nM | 13.8 | 3100 | 3160 |  |  |  |  | 
CC(C)[C@H](NC(=O)[C@H](CC(=O)O)NC(=O)[C@H](Cc1ccccc1)NC(=O)[C@@H](C)NC(=O)[C@@H](N)Cc1ccc(O)cc1)C(=O)N[C@H](C(=O)NCC(N)=O)C(C)C [Deltorphin C, Tyr-D-Ala-Phe-Asp-Val-Val-Gly-NH2] | 620 nM | 631 |  |  | 0.4 | 0.437 |  |  | 
C[C@@H](NC(=O)[C@@H](N)Cc1ccc(O)cc1)C(=O)N[C@@H](Cc1ccccc1)C(=O)NCC(=O)N[C@@H](Cc1ccc(O)cc1)C(=O)N1CCC[C@H]1C(=O)N[C@@H](CO)C(N)=O [Dermorphin] | 6.5 nM and 5.9 nM | 6.31 |  |  |  |  | 1410 | 50 | 1230
CC(C)C[C@H](NC(=O)[C@H](Cc1ccccc1)NC(=O)CNC(=O)CNC(=O)[C@@H](N)Cc1ccc(O)cc1)C(=O)N[C@@H](CCCN=C(N)N)C(=O)N[C@@H](CCCN=C(N)N)C(=O)N[C@@H](CCC(N)=O)C(=O)N[C@@H](Cc1ccccc1)C(=O)N[C@@H](CCCCN)C(=O)N[C@H](C(=O)N[C@H](C(=O)N[C@H](C(=O)O)[C@@H](C)O)C(C)C)C(C)C [Dynorphin B] | 900 nM | 794 | 25 | 25.1 |  |  |  |  | 

“And” between values parts separate entries of the source, which are not always exact repeats. Equal values may be shown once.
